## Apparent affinities of Ab-91 variants for a coronavirus HR2 peptide

The measurements come from Engelhart et al. 2022 (doi:10.1038/s41597-022-01779-4) through the FLAb antibody collection.

Target: peptide PDVDLGDISGINAS, taken from heptad repeat 2 (HR2) of SARS-CoV-2 spike.

The variants keep the light chain, the linker and the frameworks of Ab-91 (scFv order VL, a (GGGGS)3 linker, VH).
VL: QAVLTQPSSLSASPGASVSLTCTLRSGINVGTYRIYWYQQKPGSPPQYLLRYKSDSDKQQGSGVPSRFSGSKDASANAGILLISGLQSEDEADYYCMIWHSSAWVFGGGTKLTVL
VH: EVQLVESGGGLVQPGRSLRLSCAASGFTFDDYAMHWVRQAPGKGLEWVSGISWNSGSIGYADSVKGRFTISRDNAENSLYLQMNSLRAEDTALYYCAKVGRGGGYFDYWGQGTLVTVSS

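The starting antibody came from a phage panning campaign against this peptide. In library AAYL51, one, two or three CDR residues were substituted; doubles and triples were drawn at random. In AlphaSeq, yeast of one mating type display the scFv and yeast of the other type display the target. Binding brings cells together so that they mate, and sequencing counts the barcode pairs among the diploids. Read counts were normalised to the haploid input and turned into Kd by a linear fit to BCL2-family pairs of known affinity, for each replicate. There are three technical replicates.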

Changes read parent residue, position, new residue, counted from the first residue of the VH shown.
This list gathers variants with a substitution at D30 (VH, numbered from residue 1).
Values are log10 of the apparent Kd in nM; lower means stronger binding.
A mean of the replicates is given; it leaves out those without a signal.
"ND" means that the variant was in the library but no mating with the target was seen in that replicate; the authors take this as a sign of poor binding, and no number exists.
Parent in this assay: reference entry 1.86, copy in this library 0.88.
Three control strains display no target. For library AAYL51, 21% of the pairings with them gave a signal, with a median of 4.54 and one signal in twenty below 3.26, so weak values seen in few replicates may be background. For each scFv, signals with the empty controls are counted beside the result.

For D30Q I58Q Y105V, the assay gave 4.06, ND, ND (controls 0 of 9). The variant D30M K65N G100Q gave 1.12, 0.99, 0.43 (mean 0.84; controls 4 of 9). With D30K K65T G102N the result was 2.92, 2.90, ND (mean 2.91; controls 1 of 9). For D30C Y32M G100T, the assay gave 4.44, ND, ND (controls 1 of 9). With D30G I51T N54I the result was ND, ND, 3.35 (controls 1 of 9).

The variant F27W D30M gave ND, ND, ND (controls 2 of 9). The variant T28S D30H D62S showed 3.36, 3.43, 3.62 (mean 3.47; controls 3 of 9). With G26R D30Q G104M the result was 2.05, 2.05, 1.82 (mean 1.97; controls 7 of 9). The variant D30L I51G I58K showed ND, ND, ND (controls 1 of 9). With D30V I51E G103N the result was ND, 3.58, ND (controls 1 of 9).

The variant D30I S55W S63T showed 4.01, ND, ND (controls 1 of 9). With D30H H35Y W53H the result was ND, ND, ND (controls 0 of 9). With D30C I58Y D107W the result was ND, 4.09, ND (controls 1 of 9). For D30S G50M, the assay gave ND, ND, ND (controls 0 of 9). The variant D30S M34C Y105M showed ND, ND, ND (controls 1 of 9).

With G26H T28Q D30H the result was ND, 5.39, ND (controls 1 of 9). The variant D30S S52R G103Y gave 4.62, ND, ND (controls 6 of 9). The variant D30C S52Y S63T showed ND, ND, ND (controls 0 of 9). For D30Q S52F G56W, the assay gave ND, 4.94, ND (controls 3 of 9). For D30H S55T F106Y, the assay gave ND, ND, ND (controls 0 of 9).

For D30K S55V G59E, the assay gave ND, ND, ND (controls 0 of 9). With D30M H35R Y108M the result was ND, ND, ND (controls 1 of 9). The variant D30Y A61C G100F gave 4.91, ND, ND (controls 1 of 9). The variant D30N W53I G59Y gave 3.39, 5.60, ND (mean 4.50; controls 1 of 9). With D30S G59A the result was 2.99, 2.91, 2.50 (mean 2.80; controls 6 of 9).

The variant F27H D30P G56Y gave 4.75, 5.94, 5.90 (mean 5.53; controls 9 of 9). With D30M Y32S G50Q the result was 4.33, ND, ND (controls 0 of 9). For F27M D30H S63A, the assay gave 1.83, 2.34, 1.95 (mean 2.04; controls 6 of 9). The variant D30F G56V D62V showed ND, ND, ND (controls 0 of 9). The variant D30I G50W V64A showed ND, ND, ND (controls 2 of 9).

The variant F27N D30L G59V gave 4.40, 4.46, 5.63 (mean 4.83; controls 5 of 9). For F27Q D30Q G103Q, the assay gave ND, ND, ND (controls 2 of 9). The variant D30M gave 1.42, 1.44, 1.06 (mean 1.31; controls 0 of 9). The variant D30T A33T G100Y gave 4.27, ND, ND (controls 3 of 9). For D30G W53I N54R, the assay gave ND, ND, ND (controls 2 of 9).

With D30N G50E G56L the result was ND, ND, ND (controls 0 of 9). The variant D30W I58M Y105R showed 1.92, 2.37, 1.95 (mean 2.08; controls 2 of 9). With D30Q W53G I58D the result was 0.60, 0.53, -0.14 (mean 0.33; controls 5 of 9). For D30W A61R G103R, the assay gave 3.11, 2.89, 2.81 (mean 2.94; controls 2 of 9). With D30G A33V K65Y the result was ND, ND, ND (controls 1 of 9).

The variant D30V Y32N S57W showed ND, ND, ND (controls 0 of 9). The variant D30P N54R V64D showed 5.63, ND, ND (controls 3 of 9). The variant D30R G59F S63K showed ND, ND, ND (controls 1 of 9). For D30N G103Y Y108S, the assay gave 4.14, ND, 5.21 (mean 4.68; controls 0 of 9). For D30W H35G Y108I, the assay gave ND, 2.97, ND (controls 0 of 9).

The variant D30K A33P Y105I gave 1.27, 1.47, 1.25 (mean 1.33; controls 0 of 9). The variant G26S D30F K65D gave 6.14, 4.70, 5.65 (mean 5.50; controls 5 of 9). The variant F27N D30A H35Y gave 4.40, 3.98, ND (mean 4.19; controls 2 of 9). The variant D30R D62M S63W showed 2.56, 2.45, 2.43 (mean 2.48; controls 0 of 9). For T28G D30W M34C, the assay gave 4.09, ND, 3.21 (mean 3.65; controls 0 of 9).

For D30S N54Y G56R, the assay gave ND, ND, 4.34 (controls 5 of 9). For D30H S52T N54S, the assay gave 4.54, 5.93, ND (mean 5.24; controls 3 of 9).